pIC50: −log10 of the molar value.
Target: T1, ACE derived from bovine lung (Bos taurus, UniProt P12820)
T1 construct: ACE derived from bovine lung; host or cells: bovine lung tissue
T1 sequence (P12820 29-1306): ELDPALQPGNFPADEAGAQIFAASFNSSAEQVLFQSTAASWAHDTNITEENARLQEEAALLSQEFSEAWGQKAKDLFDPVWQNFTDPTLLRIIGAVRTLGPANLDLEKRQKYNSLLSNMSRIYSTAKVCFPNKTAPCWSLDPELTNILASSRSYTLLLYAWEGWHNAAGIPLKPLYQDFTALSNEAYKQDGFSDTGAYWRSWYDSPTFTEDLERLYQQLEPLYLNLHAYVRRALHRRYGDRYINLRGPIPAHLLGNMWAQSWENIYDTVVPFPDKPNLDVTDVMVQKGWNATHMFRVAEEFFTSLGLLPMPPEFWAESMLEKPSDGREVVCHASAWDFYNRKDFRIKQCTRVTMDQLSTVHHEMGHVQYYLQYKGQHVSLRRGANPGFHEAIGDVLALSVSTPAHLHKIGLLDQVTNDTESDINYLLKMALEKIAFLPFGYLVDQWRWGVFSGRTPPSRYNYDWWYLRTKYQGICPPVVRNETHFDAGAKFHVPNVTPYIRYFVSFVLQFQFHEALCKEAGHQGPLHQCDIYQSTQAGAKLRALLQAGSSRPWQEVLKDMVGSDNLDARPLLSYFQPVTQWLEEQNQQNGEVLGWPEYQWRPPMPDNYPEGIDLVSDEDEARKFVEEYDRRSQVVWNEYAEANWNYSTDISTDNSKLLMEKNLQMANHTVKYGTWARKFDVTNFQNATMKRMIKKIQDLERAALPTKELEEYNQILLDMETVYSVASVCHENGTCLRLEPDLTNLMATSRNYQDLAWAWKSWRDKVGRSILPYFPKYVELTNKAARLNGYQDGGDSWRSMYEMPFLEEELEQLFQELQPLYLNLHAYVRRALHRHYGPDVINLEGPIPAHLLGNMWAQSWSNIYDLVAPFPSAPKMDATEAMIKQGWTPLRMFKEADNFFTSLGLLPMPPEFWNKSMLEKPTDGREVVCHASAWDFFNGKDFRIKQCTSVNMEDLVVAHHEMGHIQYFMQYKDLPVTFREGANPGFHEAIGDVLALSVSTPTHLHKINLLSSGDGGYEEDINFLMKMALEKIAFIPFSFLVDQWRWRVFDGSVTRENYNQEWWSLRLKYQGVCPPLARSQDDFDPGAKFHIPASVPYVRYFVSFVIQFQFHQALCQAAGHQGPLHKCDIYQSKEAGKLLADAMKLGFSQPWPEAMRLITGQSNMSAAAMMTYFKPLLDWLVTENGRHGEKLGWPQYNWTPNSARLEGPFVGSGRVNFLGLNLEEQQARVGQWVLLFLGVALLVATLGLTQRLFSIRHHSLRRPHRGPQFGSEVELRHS
Test: Evaluation of ACE inhibitory activity (hippuryl-histidyl-leucine substrate, absorbance at 228 nm)
Type: biochemical
Settings: peptide concentration at which ACE inhibitory effect was 50%; 37° C., 30 minutes, pH 8.3 borate buffer
Description: Solutions of each of these peptides at various concentrations were prepared, and measured for the ACE inhibitory activity in accordance with the method discussed below. The peptide concentration (μM) at which the ACE inhibitory effect was 50% was taken as IC50 value.
<Evaluation of ACE Inhibitory Activity>
ACE derived from bovine lung (manufactured by WAKO PURE CHEMICAL […], LTD.) was dissolved in a 0.1M borate buffer at pH 8.3 in an amount of 0.1 U, to obtain an ACE solution. […] Subsequently, the reaction was terminated by adding 250 μl of 1N hydrochloric acid (manufactured by WAKO PURE CHEMICAL […], LTD.). […] The dried product was dissolved in 1 ml of distilled water, and the absorbance at 228 nm of hippuric acid extracted with ethyl acetate was measured. As controls, absorbance was measured of a solution without the diluted solution and a solution without the diluted solution and the ACE solution. From the obtained absorbance, ACE inhibitory activity was calculated in accordance with the following formula. ACE inhibitory activity (%)=[(A−B)/A]×100 • A: (Absorbance of solution without diluted solution but with ACE solution)—(Absorbance of solution without diluted solution and ACE solution)
B: (Absorbance of solution with diluted solution and ACE solution)—(Absorbance of solution with diluted solution but without ACE solution)

pIC50: 4.35
Structure (SMILES): N[C@@H](CO)C(=O)N1CCC[C@H]1C(=O)N1CCC[C@H]1C(=O)O [Ser-Pro-Pro]

Source: patent US20070122451A1, “Biogically non-degradable peptides, angiostensin converting enzyme inhibitor, drug and functional food” (Calpis Co., Ltd., priority 2003, published 2007)
